# Antibody variant affinities, Ab-14 heavy chain, assay 1

Values reported by Engelhart et al. 2022, doi:10.1038/s41597-022-01779-4 (FLAb copy).

Target: peptide PDVDLGDISGINAS, taken from heptad repeat 2 (HR2) of SARS-CoV-2 spike.

Parent: Ab-14, a human scFv built as VH, a 15-residue (Gly4Ser)3 linker, VL. Only the CDRs of the heavy chain vary.
VH: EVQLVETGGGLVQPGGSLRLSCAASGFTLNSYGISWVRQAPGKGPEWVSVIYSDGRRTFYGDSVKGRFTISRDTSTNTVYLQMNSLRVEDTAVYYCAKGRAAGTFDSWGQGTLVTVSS
VL: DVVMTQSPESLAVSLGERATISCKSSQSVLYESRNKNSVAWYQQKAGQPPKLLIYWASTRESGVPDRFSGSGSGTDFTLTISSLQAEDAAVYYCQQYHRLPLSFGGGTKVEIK

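Phage display of a naive human antibody library on the peptide gave the parent. The library (AAYL49) carries one to three amino acid substitutions per variant, with no insertions or deletions. In AlphaSeq, yeast of one mating type display the scFv and yeast of the other type display the target. Pairs that bind mate more often; barcode pairs of the diploids are counted by sequencing. A regression on co-assayed BCL2-family reference pairs converts the normalised counts of each replicate to an apparent Kd. Each pool was mated in three replicate cultures.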

Changes read parent residue, position, new residue, counted from the first residue of the VH shown. Scale: log10 of Kd in nM, estimated from mating counts; low values are strong binders. "n.d." marks a missing value. The strain was present, yet no cells mated with the target were sequenced in that replicate, which points to weak or no binding. Nonspecific signal, from three strains lacking the peptide, appeared in 15% of pairings of library AAYL49, centred on 4.06 (5% of these signals below 2.83); values are not corrected for it. The control count says in how many pairings with the empty strains this scFv gave a signal, with their mean in brackets.

changes	log10 Kd (nM) by replicate	control signals
L29T/N30T/F59M	1.88 / 2.17 / 2.55	0/9
G61S/G99D/A102C	n.d. / n.d. / n.d.	4/9 (4.44)
G33N/I34N/S53L	3.17 / 3.98 / 5.02	3/9 (4.09)
G33W/R100Y/S107M	n.d. / n.d. / n.d.	0/9
R56N/Y60H/S107W	4.32 / n.d. / 3.94	1/9 (3.58)
S31F/S35P/A102F	n.d. / n.d. / n.d.	1/9 (2.88)
I34E/I51P	n.d. / n.d. / n.d.	0/9
S53P/S63N/K65E	2.03 / 1.93 / 2.19	5/9 (4.36)
Y32E/V64D/S107R	n.d. / n.d. / n.d.	1/9 (4.31)
S53N/R57V/F105E	n.d. / n.d. / 4.62	1/9 (3.04)
I51Y/Y60L	n.d. / n.d. / n.d.	0/9
S53L/G55T/V64I	n.d. / n.d. / n.d.	0/9
S31M/D54I/F105T	4.06 / n.d. / n.d.	3/9 (4.67)
Y32Q/D54W/D62M	n.d. / n.d. / n.d.	0/9
T28E/S63K/A101C	2.20 / 2.31 / 2.22	1/9 (4.51)
V50L/Y52A/R57T	3.17 / n.d. / n.d.	1/9 (4.27)
G33N/V50P/Y52E	n.d. / n.d. / n.d.	4/9 (5.07)
L29C/S31R/G103V	n.d. / n.d. / n.d.	0/9
G33M/G61W/A101F	n.d. / n.d. / n.d.	1/9 (3.27)
D54T/Y60N/D106E	n.d. / n.d. / n.d.	3/9 (3.45)
D54M/R57L	n.d. / n.d. / 4.19	3/9 (3.40)
L29K/G99S/R100S	n.d. / n.d. / n.d.	1/9 (3.99)
L29Y/S53Y/K65F	2.96 / 2.27 / n.d.	2/9 (2.85)
G33L/D54I/G99C	4.18 / 2.36 / n.d.	0/9
S31R/Y32Q/F59C	3.45 / 2.22 / 2.66	1/9 (4.70)
N30Y/R57V/T58W	n.d. / 3.16 / n.d.	2/9 (3.23)
G26K/R56M/F105Y	1.94 / 2.64 / 2.42	0/9
N30A/Y32M/I51S	n.d. / n.d. / n.d.	0/9
G26V/Y60D/S63D	n.d. / 4.16 / n.d.	0/9
N30M/R56F	3.31 / 5.43 / n.d.	1/9 (3.68)
F59S/S63V/R100S	n.d. / 3.88 / n.d.	1/9 (4.44)
F27I/G33M/G55L	n.d. / n.d. / n.d.	1/9 (1.83)
N30H/I51E/R56H	n.d. / n.d. / n.d.	2/9 (3.63)
V50N/Y60F	n.d. / n.d. / n.d.	2/9 (3.99)
S53I/G55N/A102N	n.d. / n.d. / n.d.	1/9 (4.26)
G26S/S35D/D106C	5.06 / 4.60 / 4.21	3/9 (4.03)
N30I/G55C/V64K	n.d. / n.d. / n.d.	0/9
F59V/G103A/T104V	2.80 / 2.75 / 2.69	1/9 (5.78)
V50G/S53H	n.d. / n.d. / n.d.	4/9 (4.06)
G55A/Y60C/A102R	n.d. / n.d. / n.d.	1/9 (4.07)
I51P/S53M/F59W	n.d. / n.d. / n.d.	3/9 (4.31)
S35A/G99T/D106S	4.11 / n.d. / n.d.	1/9 (3.92)
D54H/G55H/R100N	n.d. / n.d. / n.d.	1/9 (3.06)
G55M/T58E/K65M	n.d. / 4.90 / n.d.	3/9 (4.40)
L29D/Y52R/T104R	n.d. / n.d. / n.d.	0/9
Y52Q/G61S/A101G	n.d. / n.d. / n.d.	3/9 (3.86)
V50W/I51P/S107G	n.d. / n.d. / n.d.	0/9
N30M/S35N/R57K	n.d. / 3.75 / n.d.	2/9 (3.92)
S35N/K65D/R100W	n.d. / n.d. / n.d.	2/9 (2.90)

The 8 strongest on average among those seen in every replicate, once more:

changes	log10 Kd (nM) by replicate	control signals
S53P/S63N/K65E	2.03 / 1.93 / 2.19	5/9 (4.36)
L29T/N30T/F59M	1.88 / 2.17 / 2.55	0/9
T28E/S63K/A101C	2.20 / 2.31 / 2.22	1/9 (4.51)
G26K/R56M/F105Y	1.94 / 2.64 / 2.42	0/9
F59V/G103A/T104V	2.80 / 2.75 / 2.69	1/9 (5.78)
S31R/Y32Q/F59C	3.45 / 2.22 / 2.66	1/9 (4.70)
G33N/I34N/S53L	3.17 / 3.98 / 5.02	3/9 (4.09)
G26S/S35D/D106C	5.06 / 4.60 / 4.21	3/9 (4.03)